{
  "sequences": {"note": "Protein sequences, listed by entry. Tags and fused reporters are not part of them.", "UniProt P62483, whole entry": "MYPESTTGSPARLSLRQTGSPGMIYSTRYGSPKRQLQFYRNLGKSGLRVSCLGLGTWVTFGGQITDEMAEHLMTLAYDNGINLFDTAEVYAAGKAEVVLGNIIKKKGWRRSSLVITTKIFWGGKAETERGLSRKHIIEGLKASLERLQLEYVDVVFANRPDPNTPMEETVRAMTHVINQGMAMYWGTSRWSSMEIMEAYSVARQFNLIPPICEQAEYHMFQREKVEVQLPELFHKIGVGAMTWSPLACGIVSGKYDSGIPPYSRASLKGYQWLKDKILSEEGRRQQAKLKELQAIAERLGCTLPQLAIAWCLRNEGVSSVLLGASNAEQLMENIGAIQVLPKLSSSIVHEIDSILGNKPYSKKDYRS"},
  "source": "PubChem BioAssay AID622",
  "about": "(Vanderbilt High Throughput Screening Facility, 2007)",
  "note": "Only a part is listed here, and it is no random draw. Some of these compounds have results that are not shown, active ones among them. Calls of active or inactive are those of the source.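 The calls were made as follows: active = fluorescence slope higher than the sample average by over 3 SD (cut at about -0.22 in these data, passing the limit was not always enough); inactive = the rest.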",
  "data": [
    {"target": "Voltage-gated potassium channel subunit beta-2 (Rattus norvegicus) (UniProt P62483)", "assay": "inhibitors of rat Kvbeta2 reductase activity – biochemical, NADPH fluorescence, primary screen (AID 622);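 also: slope of raw intensity against log time taken from 70 to 1610 s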", "conditions": "recombinant KvBeta, 4-cyanobenzaldehyde reduction, at 10 µM, hits give high values", "values": [
      {"molecule": "O=C(OC1CN2CCC1CC2)C(CO)(c1ccccc1)c1ccccc1", "note": "(stereo unspecified)", "fluorescence slope": "inactive: -0.511"}
    ]}
  ]
}
